In patent publication US20040126323A1, “Transdermal dosage form comprising an active agent and a salt and free-base form of an adverse agent” (published 2004):
Where two headings read alike, the source gives them in different places.

How the values were obtained:
[1] = Example 2 device, 2 cm^2 portion; for amount extracted, PBS: 15 mL PBS; for amount extracted, Diethyl Ether: 15 mL diethyl ether
[2] = Example 1 device, 2 cm^2 portion; for amount extracted, PBS: 15 mL PBS; for amount extracted, Diethyl Ether: 15 mL diethyl ether
[3] = 15 mL ethanol/water 75:25, 5 minutes
[4] = 15 mL ethanol/water 75:25, 10 minutes
[5] = 15 mL ethanol/water 75:25, 15 minutes
[6] = 15 mL ethanol/water 75:25, 20 minutes
[7] = 15 mL ethanol/water 75:25, 25 minutes
[8] = 15 mL ethanol/water 75:25, 30 minutes

Compound: C=C1CC[C@@]2(O)[C@H]3Cc4ccc(O)c5c4[C@@]2(CCN3CC2CC2)[C@H]1O5
- amount extracted, PBS ([1]; 5 minutes): 0 µg
- amount extracted, PBS ([1]; 10 minutes): 6 µg
- amount extracted, PBS ([1]; 15 minutes): 9 µg
- amount extracted, PBS ([1]; 20 minutes): 9 µg
- amount extracted, PBS ([1]; 25 minutes): 26 µg
- amount extracted, PBS ([1]; 30 minutes): 35 µg
- amount extracted, Diethyl Ether ([1]; 5 minutes): 596 µg
- amount extracted, Diethyl Ether ([1]; 10 minutes): 1092 µg
- amount extracted, Diethyl Ether ([1]; 15 minutes): 1514 µg
- amount extracted, Diethyl Ether ([1]; 20 minutes): 1425 µg
- amount extracted, Diethyl Ether ([1]; 25 minutes): 1649 µg
- amount extracted, Diethyl Ether ([1]; 30 minutes): 1346 µg
- amount extracted, Ethanol/Water [1, 3]: 48 µg
- amount extracted, Ethanol/Water [1, 4]: 179 µg
- amount extracted, Ethanol/Water [1, 5]: 334 µg
- amount extracted, Ethanol/Water [1, 6]: 469 µg
- amount extracted, Ethanol/Water [1, 7]: 568 µg
- amount extracted, Ethanol/Water [1, 8]: 721 µg
- amount extracted, PBS ([2]; 5 minutes): 0 µg
- amount extracted, PBS ([2]; 10 minutes): 0 µg
- amount extracted, PBS ([2]; 15 minutes): 4 µg
- amount extracted, PBS ([2]; 20 minutes): 5 µg
- amount extracted, PBS ([2]; 25 minutes): 14 µg
- amount extracted, PBS ([2]; 30 minutes): 15 µg
- amount extracted, Diethyl Ether ([2]; 5 minutes): 0 µg
- amount extracted, Diethyl Ether ([2]; 10 minutes): 52 µg
- amount extracted, Diethyl Ether ([2]; 15 minutes): 193 µg
- amount extracted, Diethyl Ether ([2]; 20 minutes): 314 µg
- amount extracted, Diethyl Ether ([2]; 25 minutes): 318 µg
- amount extracted, Diethyl Ether ([2]; 30 minutes): 353 µg
- amount extracted, Ethanol/Water [2, 3]: 38 µg
- amount extracted, Ethanol/Water [2, 4]: 140 µg
- amount extracted, Ethanol/Water [2, 5]: 251 µg
- amount extracted, Ethanol/Water [2, 6]: 480 µg
- amount extracted, Ethanol/Water [2, 7]: 650 µg
- amount extracted, Ethanol/Water [2, 8]: 834 µg

Compound: O=C1CC[C@@]2(O)[C@H]3Cc4ccc(O)c5c4[C@@]2(CCN3CC2CC2)[C@H]1O5
- amount extracted, PBS ([1]; 5 minutes): 0 µg
- amount extracted, PBS ([1]; 10 minutes): 8 µg
- amount extracted, PBS ([1]; 15 minutes): 10 µg
- amount extracted, PBS ([1]; 20 minutes): 22 µg
- amount extracted, PBS ([1]; 25 minutes): 28 µg
- amount extracted, PBS ([1]; 30 minutes): 38 µg
- amount extracted, Diethyl Ether ([1]; 5 minutes): 204 µg
- amount extracted, Diethyl Ether ([1]; 10 minutes): 386 µg
- amount extracted, Diethyl Ether ([1]; 15 minutes): 556 µg
- amount extracted, Diethyl Ether ([1]; 20 minutes): 537 µg
- amount extracted, Diethyl Ether ([1]; 25 minutes): 637 µg
- amount extracted, Diethyl Ether ([1]; 30 minutes): 534 µg
- amount extracted, Ethanol/Water [1, 3]: 50 µg
- amount extracted, Ethanol/Water [1, 4]: 177 µg
- amount extracted, Ethanol/Water [1, 5]: 331 µg
- amount extracted, Ethanol/Water [1, 6]: 471 µg
- amount extracted, Ethanol/Water [1, 7]: 577 µg
- amount extracted, Ethanol/Water [1, 8]: 735 µg
